Measured values taken from publication PMC6953423 (Journal of medicinal chemistry, 2019).

By UniProt entry, the sequences of proteins in these tests, tags left out.
UniProt P47746, whole entry: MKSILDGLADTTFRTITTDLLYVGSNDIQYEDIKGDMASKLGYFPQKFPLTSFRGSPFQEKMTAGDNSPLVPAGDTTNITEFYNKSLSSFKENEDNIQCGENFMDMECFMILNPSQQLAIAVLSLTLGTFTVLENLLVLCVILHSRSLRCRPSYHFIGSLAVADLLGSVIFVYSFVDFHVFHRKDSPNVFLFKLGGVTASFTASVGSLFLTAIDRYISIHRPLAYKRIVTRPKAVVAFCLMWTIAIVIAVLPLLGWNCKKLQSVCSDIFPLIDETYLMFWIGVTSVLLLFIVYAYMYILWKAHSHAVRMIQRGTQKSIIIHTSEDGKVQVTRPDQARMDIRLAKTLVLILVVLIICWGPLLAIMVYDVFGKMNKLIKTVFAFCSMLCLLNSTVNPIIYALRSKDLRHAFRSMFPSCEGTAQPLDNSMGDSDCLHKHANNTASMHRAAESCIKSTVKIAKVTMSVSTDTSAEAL

Target: mouse CB1 (Mus musculus, UniProt P47746)
Test: mCB1 [35S]GTPγS binding assay in mouse cerebellar membranes
Conditions: IC50 at 100 nM vs 1 μM CP55,940

O=C(Nc1ccc(Cl)cc1)Nc1ccc(-c2ccc(F)cc2F)s1 [Compound 20, 1‐(4‐Chlorophenyl)‐3‐[5‐(2,4‐difluorophenyl)thiophen‐2‐yl]urea]
IC50 Fold Change: 3
